{
  "source": "paper PMC7865145",
  "about": "“Identification of existing pharmaceuticals and herbal medicines as inhibitors of SARS-CoV-2 infection” (Proceedings of the National Academy of Sciences of the …, 2021)",
  "target": "Papain-like protease (nsp3) of SARS-CoV-2 (Severe acute respiratory syndrome coronavirus 2, UniProt P0DTD1)",
  "type": "biochemical",
  "data": [
    {"molecule": "Nc1nc2nc[nH]c2c(=S)[nH]1", "note": "[Thioguanine 3, Thioguanine]", "values": [
      {"measurement": "Inhibition % at 100 uM of compounds, Papain-like protease (nsp3)", "result": "N.I."}
    ]}
  ]
}
